SMILES strings stand for the structures.

Chains of the proteins cited; added tags and fusions are not shown.
UniProt Q01959, whole entry: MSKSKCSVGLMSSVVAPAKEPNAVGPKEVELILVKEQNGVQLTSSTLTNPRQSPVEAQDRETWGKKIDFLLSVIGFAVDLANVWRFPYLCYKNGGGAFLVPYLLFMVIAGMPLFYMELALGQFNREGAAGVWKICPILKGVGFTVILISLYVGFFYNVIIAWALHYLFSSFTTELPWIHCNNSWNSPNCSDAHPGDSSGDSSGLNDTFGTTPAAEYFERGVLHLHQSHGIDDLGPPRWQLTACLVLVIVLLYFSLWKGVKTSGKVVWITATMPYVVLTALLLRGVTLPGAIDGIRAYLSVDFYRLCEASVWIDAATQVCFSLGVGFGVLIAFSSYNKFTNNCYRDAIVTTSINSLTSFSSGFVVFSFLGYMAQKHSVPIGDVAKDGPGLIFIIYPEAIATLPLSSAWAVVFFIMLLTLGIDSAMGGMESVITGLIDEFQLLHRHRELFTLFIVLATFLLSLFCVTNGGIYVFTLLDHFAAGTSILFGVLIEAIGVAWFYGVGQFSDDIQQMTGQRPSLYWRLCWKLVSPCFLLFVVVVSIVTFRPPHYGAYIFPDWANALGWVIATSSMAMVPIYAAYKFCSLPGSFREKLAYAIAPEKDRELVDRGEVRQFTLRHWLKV

In the experiment the target is Sodium-dependent dopamine transporter (Homo sapiens, UniProt Q01959).

Turning to `CN(C)CCCN1c2ccccc2CCc2ccccc21` [IMIPRAMINE], the IC50 worked out at 25.6 µM.

For the origin of these results see ChEMBL document CHEMBL1138538, “Design, synthesis, and evaluation of 10-N-substituted acridones as novel chemosensitizers in Plasmodium falciparum” (Antimicrob Agents Chemother, 2007).
